Test results published in patent US20260274832A1, “COMPOUNDS AND THEIR USE IN TREATING CANCER” (ASTRAZENECA AB, priority 2023, published 2026).

Protein sequences, listed by entry. Tags and fused reporters are not part of them.
UniProt P10275, whole entry L702H/T878A: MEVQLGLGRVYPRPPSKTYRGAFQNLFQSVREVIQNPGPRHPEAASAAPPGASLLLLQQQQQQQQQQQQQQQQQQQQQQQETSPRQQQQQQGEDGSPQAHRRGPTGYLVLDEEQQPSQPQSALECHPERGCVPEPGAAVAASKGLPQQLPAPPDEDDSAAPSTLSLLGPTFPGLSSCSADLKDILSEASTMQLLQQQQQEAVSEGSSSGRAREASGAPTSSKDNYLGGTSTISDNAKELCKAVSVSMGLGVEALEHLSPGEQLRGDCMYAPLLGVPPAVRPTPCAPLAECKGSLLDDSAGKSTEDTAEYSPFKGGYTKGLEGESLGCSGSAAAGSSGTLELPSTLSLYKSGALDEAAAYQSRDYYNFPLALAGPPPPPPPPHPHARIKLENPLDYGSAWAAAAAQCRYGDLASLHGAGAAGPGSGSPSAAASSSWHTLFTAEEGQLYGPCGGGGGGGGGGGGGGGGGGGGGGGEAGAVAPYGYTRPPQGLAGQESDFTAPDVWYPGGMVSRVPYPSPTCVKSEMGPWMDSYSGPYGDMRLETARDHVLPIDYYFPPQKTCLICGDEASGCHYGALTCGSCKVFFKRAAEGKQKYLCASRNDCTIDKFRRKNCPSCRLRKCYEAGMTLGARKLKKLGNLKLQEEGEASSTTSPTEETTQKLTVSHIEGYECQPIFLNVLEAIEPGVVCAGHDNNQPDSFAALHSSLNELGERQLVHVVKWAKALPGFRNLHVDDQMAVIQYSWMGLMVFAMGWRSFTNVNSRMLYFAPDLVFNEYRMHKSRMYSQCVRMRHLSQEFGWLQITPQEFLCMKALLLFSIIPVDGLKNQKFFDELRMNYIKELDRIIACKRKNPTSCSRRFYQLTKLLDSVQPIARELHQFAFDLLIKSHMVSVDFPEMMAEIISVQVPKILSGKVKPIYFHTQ
UniProt P10275, whole entry T878A: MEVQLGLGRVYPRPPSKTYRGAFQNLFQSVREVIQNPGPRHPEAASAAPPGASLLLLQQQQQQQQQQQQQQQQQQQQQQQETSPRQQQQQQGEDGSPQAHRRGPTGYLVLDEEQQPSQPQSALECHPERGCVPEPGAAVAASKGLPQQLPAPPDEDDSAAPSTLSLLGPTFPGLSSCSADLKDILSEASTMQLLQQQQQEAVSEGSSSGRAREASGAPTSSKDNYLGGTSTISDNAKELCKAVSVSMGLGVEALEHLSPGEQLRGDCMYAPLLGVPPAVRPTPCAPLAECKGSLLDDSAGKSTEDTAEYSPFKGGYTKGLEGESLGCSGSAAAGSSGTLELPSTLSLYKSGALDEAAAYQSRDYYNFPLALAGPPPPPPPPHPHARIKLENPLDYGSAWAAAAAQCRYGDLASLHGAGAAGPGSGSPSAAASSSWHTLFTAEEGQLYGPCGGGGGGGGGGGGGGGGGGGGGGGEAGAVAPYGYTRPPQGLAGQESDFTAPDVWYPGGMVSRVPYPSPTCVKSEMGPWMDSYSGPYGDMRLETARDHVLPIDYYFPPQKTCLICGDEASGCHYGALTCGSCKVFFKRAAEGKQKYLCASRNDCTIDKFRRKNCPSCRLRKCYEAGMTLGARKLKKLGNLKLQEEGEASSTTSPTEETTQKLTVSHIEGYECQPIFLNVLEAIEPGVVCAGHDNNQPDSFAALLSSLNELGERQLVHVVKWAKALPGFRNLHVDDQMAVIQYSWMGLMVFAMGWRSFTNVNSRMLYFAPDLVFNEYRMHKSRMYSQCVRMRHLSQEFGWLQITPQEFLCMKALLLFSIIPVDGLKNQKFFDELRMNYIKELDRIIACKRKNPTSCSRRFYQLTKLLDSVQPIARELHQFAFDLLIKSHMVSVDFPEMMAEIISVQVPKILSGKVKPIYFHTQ
UniProt Q96SW2, whole entry partner: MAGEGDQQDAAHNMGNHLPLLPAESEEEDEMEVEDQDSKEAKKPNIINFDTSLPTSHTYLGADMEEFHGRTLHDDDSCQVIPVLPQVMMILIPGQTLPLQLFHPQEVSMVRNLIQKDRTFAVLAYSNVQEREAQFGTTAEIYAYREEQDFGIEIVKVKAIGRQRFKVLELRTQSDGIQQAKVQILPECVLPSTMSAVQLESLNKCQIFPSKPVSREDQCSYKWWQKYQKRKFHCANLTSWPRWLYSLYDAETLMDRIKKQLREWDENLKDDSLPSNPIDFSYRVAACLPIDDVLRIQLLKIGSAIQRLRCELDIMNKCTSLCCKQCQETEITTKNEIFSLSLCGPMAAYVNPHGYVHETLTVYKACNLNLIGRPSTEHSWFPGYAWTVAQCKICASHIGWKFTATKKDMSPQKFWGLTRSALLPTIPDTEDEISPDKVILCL

Assays:
[1] = biological target: AR (L702H) in LNCaP cells (Homo sapiens, UniProt P10275, L702H/T878A); test: LNCaP Androgen Receptor L702H Imaging Assay (LNCaP cells engineered by CRISPR/Cas9); conditions: LNCaP cells with AR L702H mutation, 24 h incubation
Experimental: (§1) All work was performed in a sterile tissue culture hood up to the point of cell fixation. LNCaP cells were cultured at 6-8×10^6 per T175 flask and split every 3-4 days. Medium: RPMI (R7638, VWR Sigma) containing 10% FCS and 1% glutamine. Cells were plated in black wall transparent bottom plates at a density of 12,000 cells (Cedex™ Cell counter, Beckmann & Coulter), 40 μL per well, using a Multidrop (ThermoFisher).
Cells were dosed with test compound diluted in DMSO using an Echo 555/655™ (Labcyte) and the final concentration of DMSO in the well was 0.3%. A neutral control (DMSO) and a positive AR degrader control at 3 μM (a prior art AR PROTAC) were included. […]
(§2) The cells were incubated with a Mouse monoclonal Anti-AR antibody AR441 (DAKO M3562) (1:1000), diluted in modified blocking buffer (PBS+1% BSA+0.1% TritonX); 15 μL/well for 2 h at RT. […] Plates could be stored after staining for three days at 4° C. before read if required.
(§3) Plates are read using a Cellomics Cellinsight to measure the Androgen Receptor level in each well. […] Down-regulation of AR is expressed as a DC50 value and determined by calculation of the concentration of compound that is required to give 50% of maximum degradation of AR as per the curve fit for that compound. The maximum degradation observed for each compound is expressed as Dmax. […]

[2] = biological target: AR (AR-full length) in LNCaP cells (Homo sapiens, UniProt P10275, T878A); test: LNCaP Androgen Receptor Imaging Assay (immunofluorescence of endogenous nuclear AR); conditions: read-out: LNCaP AR Degradation DC50, 24 h incubation, concentration giving 50% of maximum degradation of AR per curve fit, single experiment or average of two or more
Experimental: This cell-based imaging assay uses immuno-fluorescence to measure endogenous nuclear AR staining in the prostate cancer cell line LNCaP (expressing AR-full length). The purpose of the assay is to identify compounds that regulate AR protein level according to the protocol laid out in the steps below.
as §1, with “(ThermoFisher). […]” for “(ThermoFisher).”
as §2, §3

- LNCaP AR (L702H) Degradation Dmax ([1]; maximum degradation observed, normalized as % of positive control): 100%
- DC50 ([1]; read-out: LNCaP AR (L702H) Degradation DC50, concentration giving 50% of maximum degradation of AR (L702H) per curve fit): 3.1 µM
- DC50 [2]: > 3 µM
Structure (SMILES): COc1nc(N2CCC(CN3CCC(c4ccc(N5CCCC(c6ccc(Cl)c7c(C#N)c[nH]c67)C5)cc4)CC3)CC2)cc2c1C(=O)N(C1CCC(=O)NC1=O)C2 (single isomer, unassigned) [Example 98, 4-Chloro-7-[(3R*)-1-{4-[1-({1-[2-(2,6-dioxopiperidin-3-yl)-4-methoxy-3-oxo-2,3-dihydro-1H-pyrrolo[3,4-c]pyridin-6-yl]piperidin-4-yl}methyl)piperidin-4-yl]phenyl}piperidin-3-yl]-1H-indole-3-carbonitrile]
